For the data set, the system named is fentanyl cue.

For the substance “(+)-(B)-trans-4-[1-[3,5-bis(trifluoromethyl)benzoyl]-2-(phenylmethyl)-4-piperidinyl]-N-(2,6-dimethylphenyl)-1-piperazine acetamide (L)-malic acid (1:1)”, the “effect of pretreatment on the stimulus generalization of fentanyl” value (fentanyl trained rats, pretreatment with 10 or 40 mg/kg) was “did not affect the stimulus generalization of fentanyl”. The “generalization to / antagonism of the fentanyl cue” value (rats, 0.63 to 40 mg/kg s.c.) was “did not show any generalization to nor any antagonism of the fentanyl cue”.

For the origin of these results see patent US20080070924A1 (priority 2003, published 2008).
